Data on four compounds can be found in patent US9918985B2, “Compounds and their use as BACE inhibitors” (ASTRAZENECA AB, priority 2010, dated 2018).

Chains of the proteins cited; added tags and fusions are not shown. Residues count along the entry.
UniProt P56817, 22-460: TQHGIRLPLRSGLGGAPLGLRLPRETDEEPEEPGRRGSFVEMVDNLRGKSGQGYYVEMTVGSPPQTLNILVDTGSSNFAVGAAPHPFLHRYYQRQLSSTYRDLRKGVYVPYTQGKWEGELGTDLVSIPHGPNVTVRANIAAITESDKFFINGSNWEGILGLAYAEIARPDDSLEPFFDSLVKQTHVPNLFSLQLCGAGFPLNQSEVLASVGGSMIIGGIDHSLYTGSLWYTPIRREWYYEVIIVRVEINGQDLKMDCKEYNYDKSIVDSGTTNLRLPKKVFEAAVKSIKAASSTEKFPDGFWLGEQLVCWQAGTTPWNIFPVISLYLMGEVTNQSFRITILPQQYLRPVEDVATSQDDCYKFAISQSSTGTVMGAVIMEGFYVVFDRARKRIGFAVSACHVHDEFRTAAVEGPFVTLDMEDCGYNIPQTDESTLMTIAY

Broadly, the IC50 is the concentration that gives 50% inhibition.

Assay [1] has as its target T1, human β-Secretase (soluble part, sBACE-Fc) (Homo sapiens (Human), UniProt P56817). Kind of assay: TR-FRET assay. It is filed as biochemical. To be noted: standard TR-FRET assay, 15 minutes reaction at r.t. Here is the method:
(§1) The β-secretase enzyme used in the TR-FRET is prepared as follows:
(§2) The cDNA for the soluble part of the human β-Secretase (AA 1-AA 460) was cloned using the ASP2-Fc10-1-IRES-GFP-neoK mammalian expression vector. The gene was fused to the Fc domain of IgG1 (affinity tag) and stably cloned into HEK 293 cells.
(§3) The robotic systems Biomek FX and Velocity 11 were used for all liquid handling and the enzyme and substrate solutions were kept on ice until they were placed in the robotic system. Enzyme (9 μl) was added to the plate then 1 μl of compound in dimethylsulphoxide was added, mixed and pre-incubated for 10 minutes. Substrate (10 μl) was then added, mixed and the reaction proceeded for 15 minutes at r.t. The reaction was stopped with the addition of Stop solution (7 μl, NaAcetate, pH 9). […] The dimethylsulphoxide control, instead of test compound, defined the 100% activity level and 0% activity was defined by wells lacking enzyme (replaced with reaction buffer).
(In general: Time-resolved FRET reads energy transfer from a long-lived donor to a nearby acceptor.)

The target of assay [2] is T1, human β-Secretase (soluble part, sBACE-Fc). Kind of assay: Diluted TR-FRET assay. The format is biochemical. As to conditions: footnote a: diluted FRET assay, 50 times less enzyme, 6.5 h reaction time; read-out: IC50 in TR-FRET assay (IC50 from the diluted FRET assay). Here is the method:
as §1, §2, §3

`CO[C@H]1CC[C@]2(CC1)Cc1ccc(C#CC(C)(C)C)cc1C21N=C(C)C(N)=N1` (single isomer, unassigned; isomer 2) [Example 20h Isomer 2, (1r,4r)-6′-(3,3-dimethylbut-1-yn-1-yl)-4-methoxy-5″-methyl-3′H-dispiro-[cyclohexane-1,2′-indene-1′,2″-imidazol]-4″-amine] returned a concentration for half-maximal inhibition (IC50) in assay [1] of 21 nM.
`CO[C@H]1CC[C@]2(CC1)Cc1ccc(-c3cc(Br)cc(C#N)c3)cc1C21N=C(C)C(N)=N1` (single isomer, unassigned; isomer 2) [Example 94 Isomer 2, 3-[(1r,4r)-4″-Amino-4-methoxy-5″-methyl-3′H-dispiro[cyclohexane-1,2′-indene-1′,2″-imidazol]-6′-yl]-5-bromobenzonitrile] yielded an IC50 in assay [1] of 4950 nM.
As to `CO[C@H]1CC[C@]2(CC1)Cc1ccc(-c3cc(Br)cc(C#N)c3)cc1C21N=C(C)C(N)=N1` (single isomer, unassigned; isomer 1) [Example 94 Isomer 1, 3-[(1r,4r)-4″-Amino-4-methoxy-5″-methyl-3′H-dispiro[cyclohexane-1,2′-indene-1′,2″-imidazol]-6′-yl]-5-bromobenzonitrile], in assay [2], the half-maximal inhibitory concentration (IC50) is 0.7 nM.
In assay [1], `CC1=NC2(N=C1N)c1cc(-c3cncc(Cl)c3)ccc1CC21CCC(C(F)F)CC1` (stereo not shown) [Example 129, 6′-(5-Chloropyridin-3-yl)-4-(difluoromethyl)-5″-methyl-3′H-dispiro[cyclohexane-1,2′-indene-1′,2″-imidazol]-4″-amine] gave an IC50 of 748 nM.
